Reference: patent publication US5712265A (The General Hospital Corporation, priority 1995, dated 1998)

Columns and labels:
[1] = Synergistic effect of M1 antagonist and D2 agonist: body fat and glucose tolerance test (Example 5); format: in vivo, female Syrian Hamster; details: for body fat pad wt / body wt: daily for eight weeks, bromocriptine 200 μg/animal, methscopolamine 20 mg/kg, pirenzepine 20 mg/kg; for body wt: 9 HALO; for AUC/Glucose / AUC/Insulin: glucose tolerance test, 2.0 g/kg i.p., after eight weeks
[2] = Synergistic effect of M1 antagonist and prolactin inhibitor: body fat (Example 6); format: in vivo, female Syrian Hamster; details: i.p. eight weeks, bromocriptine 200 μg/animal, methscopolamine 1 mg/kg; for body wt: 9 HALO
[3] = test system: muscarinic receptors expressed in pancreatic islet cells; details: cited from earlier work

| Structure (SMILES) | body fat pad wt [1] | body wt [1] | AUC/Glucose [1] | AUC/Insulin [1] | body fat pad wt [2] | body wt [2] | binding after insulin treatment ([3]; insulin treatment of STZ rats) | binding to pancreatic islet cells after fasting ([3]; non-diabetic rats, fasting) | enhancement of binding to islets of STZ-diabetic rats vs normal cells ([3]; streptozotocin-induced diabetes) |
| --- | --- | --- | --- | --- | --- | --- | --- | --- | --- |
| CC(C)C[C@H]1C(=O)N2CCC[C@H]2[C@]2(O)O[C@](NC(=O)[C@@H]3C=C4c5cccc6[nH]c(Br)c(c56)C[C@H]4N(C)C3)(C(C)C)C(=O)N12 [bromocriptine] | 6.0 ± 0.4 g | 182 ± 9 g | 474 ± 36 mg % (hr) | 265 ± 80 μU/ml (hr) | 5.2 ± 0.4 g | 184 ± 7 g | – | – | – |
| C[N+]1(C)[C@@H]2C[C@@H](OC(=O)[C@H](CO)c3ccccc3)C[C@H]1[C@@H]1O[C@@H]12 [methyl scopolamine] | 7.2 ± 0.4 g | 206 ± 6 g | 495 ± 31 mg % (hr) | 373 ± 26 μU/ml (hr) | 5.8 ± 0.4 g | 201 ± 9 g | lowered | decreased | 80% |
